Experimental data: article PMC2813939 (Neuropsychopharmacology : official publication of the …, 2009)
Values joined by “and” are separate entries in the source; they are usually repeats but may differ in a detail not shown here. Identical values can stand only once. Like-named read-outs stand apart in the source and are kept apart here.

Chains of the proteins cited; added tags and fusions are not shown. Lines headed by an entry give the natural chain unless they say otherwise; changes in a name come on top. Residues count along the entry.
UniProt P14416, 1-414 isoform P14416-2: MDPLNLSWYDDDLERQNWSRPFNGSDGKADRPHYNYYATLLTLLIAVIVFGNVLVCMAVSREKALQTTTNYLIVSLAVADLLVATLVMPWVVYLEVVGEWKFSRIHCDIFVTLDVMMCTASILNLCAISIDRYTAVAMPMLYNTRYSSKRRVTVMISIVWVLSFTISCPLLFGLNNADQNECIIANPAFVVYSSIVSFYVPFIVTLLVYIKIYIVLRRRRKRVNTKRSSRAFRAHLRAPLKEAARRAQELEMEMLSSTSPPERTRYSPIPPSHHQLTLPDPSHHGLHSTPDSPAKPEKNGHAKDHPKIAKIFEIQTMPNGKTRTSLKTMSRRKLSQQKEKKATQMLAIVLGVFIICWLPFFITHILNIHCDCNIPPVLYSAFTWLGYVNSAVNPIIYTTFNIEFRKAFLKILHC

Assays:
Assay in all cases: cell-based
[1] = biological target: T1, human D2 receptor (short isoform, D2S) (Homo sapiens, UniProt P14416); format: binding
[2] = biological target: T1, human D2 receptor (short isoform, D2S)
[3] = biological target: T1, human D2 receptor (short isoform, D2S); remark: listed apart in the source

SMILES | Bmax [1] | Ki [2] | Ki ([3]; Internalized D2 receptor (Q+/MTSET+) KI(i)) [nM] | Ki ([3]; Surface D2 receptor (Q-/MTSET-) KI(s)) [nM] | Kd ([1]; KD)
CN1CN(c2ccccc2)C2(CCN(CCCC(=O)c3ccc(F)cc3)CC2)C1=O [NMSP, N-methylspiperone] | 37.75 pmol/10^5 cells and 19.35 pmol/10^5 cells | – | – | – | –
CCN1CCC[C@H]1CNC(=O)c1c(O)c(Cl)cc(Cl)c1OC [Raclopride] | – | 0.26 nM and 0.28 nM | 1 ± 0.35 | 0.5 ± 0.08 | 1.2 nM and 0.5 nM
